Measured values taken from patent US9944583B2, “Methods for ameliorating and preventing central nervous system inflammation” (THE REGENTS OF THE UNIVERSITY OF CALIFORNIA, priority 2007, dated 2018).

Tests used:
Nox2 [1] = assay: Nox expression in primary neuronal cultures (immunocytochemistry, Western blot); conditions: ketamine 0.5 μM or IL-6 10 ng/ml, 24 h
NADPH oxidase (Nox) = assay: Nox activity in synaptosomes by NADPH-dependent oxygen consumption (oximetry); type: biochemical, mouse; conditions: synaptosomes from mice given ketamine 30 mg/kg on two consecutive days; control 4.67±0.98
Procedure: Synaptosomal preparations. […] Mice were euthanized by exposure to a lethal dose of inhaled halothane, followed by cervical dislocation. Brains were rapidly removed, cortices dissected and homogenized in 10 volumes of ice-cold isolation buffer (0.32M sucrose, 1 mM EDTA, 10 mM Tris-HCl buffer, pH 7.4, 10 mM glucose). The homogenate was centrifuged at 3100 rpm for 3 min at 4° C., and the supernatant collected, and the pellet was re-homogenized in half the volume of isolation buffer and centrifuged again. Synaptosomal were then isolated as described (see reference 30, below) modified as follows, the pooled supernatants were mixed with PERCOLL™ (Sigma, St. Louis, Mo.) to a final concentration of 15%, and then layered onto a step gradient of 23% and 40% PERCOLL™, and centrifuged at 16,000 rpm for 5 minutes at 4° C. The uppermost band was extracted, rinsed in isolation buffer, centrifuged and resuspended in synaptosomal buffer (120 mM NaCl, 4.7 mM KCl, 2.2 mM CaCl2, 1.2 mM MgCl2, 25 mM HEPES, 1.2 mM MgSO4, 1.2 mM KH2PO4, 10 mM glucose).
Oxygen consumption studies (oximetry). O2 consumption studies on synaptosomes are carried out. […] Studies were carried out to optimize the concentration of synaptosomal protein required, and to confirm stability and viability of synaptosomes and their mitochondria for up to 6 h.

IL-6 mRNA [2] = assay: cytokine mRNA by RT-PCR in ketamine-treated primary neuronal cultures; conditions: 24 hours after ketamine 0.5 μM
IL-6 mRNA [3] = assay: cytokine mRNA in forebrain after in vivo ketamine; conditions: ketamine 30 mg/kg on two consecutive days
Nox2 [4] = assay: IL-6 i.p. on two consecutive days in mice: brain and synaptosomal Nox; conditions: IL-6 5 μg/kg on two consecutive days

| Compound | expression of Nox2 (Nox2 [1]) | NADPH-induced oxygen consumption (NADPH oxidase (Nox)) [nmol O2/mg protein/min] | IL-6 mRNA level with respect to control (IL-6 mRNA [2]) [%] | levels of IL-6 mRNA in brain (IL-6 mRNA [3]) | Nox2 mRNA in brain, Nox protein and activity in synaptosomes (Nox2 [4]) |
| --- | --- | --- | --- | --- | --- |
| CNC1(c2ccccc2Cl)CCCCC1=O (stereo not drawn) [ketamine] | induced | 7.9±1.8 | 180±18.1 | increased |  |
| IL-6: pro-inflammatory cytokine interleukin-6 | induced |  |  |  | increases |
